{"sequences": {"note": "Sequences of proteins named here, by UniProt entry; tags and fusion partners are left off. Residues count along the entry.", "UniProt P07333, 20-972": "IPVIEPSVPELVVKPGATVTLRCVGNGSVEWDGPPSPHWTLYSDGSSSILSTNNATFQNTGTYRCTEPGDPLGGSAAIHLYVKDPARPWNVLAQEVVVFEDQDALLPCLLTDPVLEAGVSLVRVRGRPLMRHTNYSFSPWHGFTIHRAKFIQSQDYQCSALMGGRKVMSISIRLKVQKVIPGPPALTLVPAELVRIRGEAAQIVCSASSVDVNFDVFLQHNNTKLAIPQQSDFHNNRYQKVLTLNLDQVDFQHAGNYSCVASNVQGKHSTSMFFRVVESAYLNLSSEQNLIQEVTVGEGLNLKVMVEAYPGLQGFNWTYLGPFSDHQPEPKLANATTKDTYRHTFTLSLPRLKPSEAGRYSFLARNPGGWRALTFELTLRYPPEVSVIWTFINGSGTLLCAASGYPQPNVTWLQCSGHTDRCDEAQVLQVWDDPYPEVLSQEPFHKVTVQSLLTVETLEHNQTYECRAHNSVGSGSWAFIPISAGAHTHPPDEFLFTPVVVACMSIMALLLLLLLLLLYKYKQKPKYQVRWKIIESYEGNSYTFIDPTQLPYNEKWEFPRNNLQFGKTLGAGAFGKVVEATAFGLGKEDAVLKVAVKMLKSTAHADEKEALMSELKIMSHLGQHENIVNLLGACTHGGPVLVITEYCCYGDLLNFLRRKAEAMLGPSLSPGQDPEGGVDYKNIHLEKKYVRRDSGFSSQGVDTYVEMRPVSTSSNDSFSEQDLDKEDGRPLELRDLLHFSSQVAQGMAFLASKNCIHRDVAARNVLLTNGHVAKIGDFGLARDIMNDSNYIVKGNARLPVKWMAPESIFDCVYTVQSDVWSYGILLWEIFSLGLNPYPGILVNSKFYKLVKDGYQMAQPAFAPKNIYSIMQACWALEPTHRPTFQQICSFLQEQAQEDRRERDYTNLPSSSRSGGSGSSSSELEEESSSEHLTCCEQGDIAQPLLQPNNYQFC", "UniProt P07333, 20-512 limits assumed": "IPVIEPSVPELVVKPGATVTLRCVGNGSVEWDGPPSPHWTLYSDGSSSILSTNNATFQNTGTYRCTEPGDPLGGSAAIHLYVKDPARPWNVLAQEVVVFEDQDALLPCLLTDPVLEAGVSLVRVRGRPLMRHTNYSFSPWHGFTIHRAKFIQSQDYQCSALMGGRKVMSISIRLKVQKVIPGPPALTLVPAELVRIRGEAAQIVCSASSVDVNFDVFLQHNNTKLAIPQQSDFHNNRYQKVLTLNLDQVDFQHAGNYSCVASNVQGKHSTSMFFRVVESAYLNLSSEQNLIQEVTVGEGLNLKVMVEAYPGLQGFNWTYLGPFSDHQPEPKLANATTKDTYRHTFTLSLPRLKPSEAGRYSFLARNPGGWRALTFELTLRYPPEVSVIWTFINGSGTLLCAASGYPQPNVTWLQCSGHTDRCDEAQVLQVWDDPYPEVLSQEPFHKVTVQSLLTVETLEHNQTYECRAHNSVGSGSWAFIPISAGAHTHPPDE"}, "source": "patent US20180162947A1", "about": "(UCB, published 2018)", "key": {"[1]": {"target": "T1, human CSF-1R on cells (THP-1 cells, transfected HEK293F cells, primary human monocytes) (human, UniProt P07333 20-972)", "experiment": "cell-based or functional assay"}, "[2]": {"target": "T1, human CSF-1R on cells (THP-1 cells, …)", "experiment": "cell-based or functional assay", "remark": "listed apart in the source"}, "[3]": {"target": "T2, recombinant human CSF-1R (form not stated) (human, UniProt P07333 20-512, limits assumed)", "T2 construct": "for the ELISA no species is stated; also called recombinant CSF-1R; recombinant CSF-1R protein", "experiment": "BIAcore, experiment 1 of 3", "experimental": "(§1) The assay format was capture of the anti-CSF-1R antibodies by immobilised anti-human IgG,F(ab′)₂, then a titration of hCSF-1R/Fc over the captured surface. BIA (Biomolecular Interaction Analysis) was performed using a BIAcore 3000 (GE Healthcare Bio-Sciences AB). All experiments were performed at 25° C. An AffiniPure F(ab′)₂ fragment goat anti-human IgG, F(ab′)₂ fragment specific (Jackson ImmunoResearch), was immobilised on a CM5 Sensor Chip (GE Healthcare Bio-Sciences AB) via amine coupling chemistry to a level of ˜5000 response units (RU). HBS-EP buffer (10 mM HEPES, pH 7.4, 0.15M NaCl, 3 mM EDTA, 0.005% Surfactant P20, GE Healthcare Bio-Sciences AB) was used as the running buffer with a flow rate of 10 μl/min."}, "[4]": {"target": "T2, recombinant human CSF-1R (form not …)", "experiment": "BIAcore, experiment 2 of 3", "experimental": "as §1"}, "[5]": {"target": "T2, recombinant human CSF-1R (form not …)", "experiment": "BIAcore, experiment 3 of 3", "experimental": "as §1"}, "[6]": {"target": "T2, recombinant human CSF-1R (form not …)", "experiment": "BIAcore, purified antibody, mean"}, "[7]": {"target": "T2, recombinant human CSF-1R (form not …)", "experiment": "BIAcore, purified antibody, experiment 1"}, "[8]": {"target": "T2, recombinant human CSF-1R (form not …)", "experiment": "BIAcore, purified antibody, experiment 2"}, "[9]": {"target": "T2, recombinant human CSF-1R (form not …)", "experiment": "BIAcore, mean of 3 (fourth row, unlabelled)", "experimental": "as §1"}, "[10]": {"target": "T2, recombinant human CSF-1R (form not …)", "experiment": "BIAcore, DG/SG comparison, crude cell supernatant"}, "[11]": {"target": "T2, recombinant human CSF-1R (form not …)", "experiment": "ELISA ligand-blocking assay, antibody pre-mixed with 1 ng/ml CSF-1 (competitor), plate-bound CSF-1R", "description": "(§2) This method is from here on referred to as the ‘ELISA ligand-blocking assay’."}, "[12]": {"target": "T2, recombinant human CSF-1R (form not …)", "experiment": "ELISA ligand-blocking assay, antibody pre-mixed with 10 ng/ml CSF-1 (competitor), plate-bound CSF-1R", "description": "as §2"}, "[13]": {"target": "T2, recombinant human CSF-1R (form not …)", "experiment": "ELISA ligand-blocking assay, antibody pre-mixed with 100 ng/ml CSF-1 (competitor), plate-bound CSF-1R", "description": "as §2"}}}
{"binder": "Ab969.g5 (969gH2gL8(SG)) (antibody, V domains shown) VH: EVTLKESGPALVKPTQTLTLTCTFSGFSLTTYGMGVGWIRQPPGKALEWLANIWWDDDKYYNPSLKNRLTISKDTSKNQVVLTMTNMDPVDTATYYCARIGPIKYPTAPYRYFDFWGQGTMVTVSS VL: DIQMTQSPSSLSASVGDRVTITCLASEDIYDNLAWYQQKPGKAPKLLIYYASSLQSGVPSRFSGSGSGTDFTLTISSLQPEDFATYYCLQDSEYPWTFGGGTKVEIKR", "values": [{"measurement": "fold decrease in potency against 969.g0, MCP-1 inhibition assay", "setting": "[1]", "value": 13.5, "unit": "fold"}, {"measurement": "mean IC50, MCP-1 inhibition assay, primary human monocytes, 100 ng/ml CSF-1", "setting": "[1]", "value": 0.333, "unit": "µg/mL"}, {"measurement": "IC50, MCP-1 inhibition assay, Donor 1", "setting": "[2]", "value": 0.667, "unit": "µg/mL"}, {"measurement": "IC50, MCP-1 inhibition assay, Donor 2", "setting": "[2]", "value": 0.1, "unit": "µg/mL"}, {"measurement": "IC50 ratio against chimeric 969.g0 (number in parentheses), Donor 1", "setting": "[2]", "value": 21.5, "unit": "ratio"}, {"measurement": "IC50 ratio against chimeric 969.g0 (number in parentheses), Donor 2", "setting": "[2]", "value": 17.6, "unit": "ratio"}, {"measurement": "Mean chimeric/graft IC50 ratio", "setting": "[2]", "value": 19.6, "unit": "ratio"}, {"measurement": "Kd", "setting": "[3]", "value": 2.9, "unit": "pM"}, {"measurement": "koff", "setting": "[3]", "value": "5e-06", "unit": "s⁻¹"}, {"measurement": "kon", "setting": "[3]", "value": "1.71e+06", "unit": "M⁻¹ s⁻¹"}, {"measurement": "Kd", "setting": "[4]", "value": 3.8, "unit": "pM"}, {"measurement": "koff", "setting": "[4]", "value": "7.03e-06", "unit": "s⁻¹"}, {"measurement": "kon", "setting": "[4]", "value": "1.85e+06", "unit": "M⁻¹ s⁻¹"}, {"measurement": "Kd", "setting": "[5]", "value": 3.7, "unit": "pM"}, {"measurement": "koff", "setting": "[5]", "value": "6.76e-06", "unit": "s⁻¹"}, {"measurement": "kon", "setting": "[5]", "value": "1.84e+06", "unit": "M⁻¹ s⁻¹"}, {"measurement": "Kd", "setting": "[6]", "value": 5.1, "unit": "pM"}, {"measurement": "koff", "setting": "[6]", "value": "8.05e-06", "unit": "s⁻¹"}, {"measurement": "kon", "setting": "[6]", "value": "1.57e+06", "unit": "M⁻¹ s⁻¹"}, {"measurement": "Kd", "setting": "[7]", "value": 5, "unit": "pM"}, {"measurement": "koff", "setting": "[7]", "value": "8.13e-06", "unit": "s⁻¹"}, {"measurement": "kon", "setting": "[7]", "value": "1.63e+06", "unit": "M⁻¹ s⁻¹"}, {"measurement": "Kd", "setting": "[8]", "value": 5.3, "unit": "pM"}, {"measurement": "koff", "setting": "[8]", "value": "7.96e-06", "unit": "s⁻¹"}, {"measurement": "kon", "setting": "[8]", "value": "1.5e+06", "unit": "M⁻¹ s⁻¹"}, {"measurement": "Kd", "setting": "[9]", "value": 3.5, "unit": "pM"}, {"measurement": "koff", "setting": "[9]", "value": "6.26e-06", "unit": "s⁻¹"}, {"measurement": "kon", "setting": "[9]", "value": "1.8e+06", "unit": "M⁻¹ s⁻¹"}, {"measurement": "Kd", "setting": "[10]", "value": 1.6, "unit": "pM"}, {"measurement": "koff", "setting": "[10]", "value": "5e-06", "unit": "s⁻¹"}, {"measurement": "kon", "setting": "[10]", "value": "3.22e+06", "unit": "M⁻¹ s⁻¹"}, {"measurement": "IC50", "setting": "[11]", "value": 0.0197, "unit": "µg/mL"}, {"measurement": "IC50", "setting": "[12]", "value": 0.268, "unit": "µg/mL"}, {"measurement": "IC50", "setting": "[13]", "value": 3.95, "unit": "µg/mL"}]}
